Data taken from patent US8580738B2, “Methods for treatment of reperfusion injury and other cardiac conditions” (The Board of Regents of the University of Texas System, priority 2007, dated 2013).

Tested on: rat myocardial ischemia-reperfusion model
Test: Rat myocardial ischemia-reperfusion model (30-min LAD occlusion, 4-hr reperfusion), infarct size
Type: in vivo
Conditions: i.v. infusion before LAD ligation; terbutaline 100 μg/kg, CGRP 30 ng/kg or combination; FIG. 9
Experimental: CGRP-receptor blockade was achieved via i.v. infusion of calcitonin-gene related peptide receptor antagonist CGRP8-37 (10 μg kg/kg) 30 min before the onset of myocardial ischemia by ligating coronary artery. Selective δ-opioid agonist DPDPE reduced infarct size by 57% compared to the control group (25±3% vs 11±2%).
Rat MI model is created by 30-min LAD ligation followed by 4-h reperfusion. Panels 8A and 8B show infarct size (30% of area-at-risk) in rats receiving saline (control) (FIG. 8A) and combination of terbutaline (1 mg/kg)+CGRP (30 ng/kg) infused at 20-min after LAD ligation (FIG. 8B), respectively. A necrotic infarct area 10 is visible as a light gray, as is the area-at-risk 11 intermediate gray supplied by LAD. Dark zone 12 is non-risk zone supplied by right and circumflex coronary arteries.
(T+C)H: with high dose of terbutaline 1 mg/kg.
Experimental Myocardial Ischemia-Reperfusion Model. The rat myocardial ischemia-reperfusion model will be used (Birnbaum et al., 2005; Huang et al., 2007). […]
To determine whether δ-opioid-initiated infarct-size-reduction is partially mediated by CGRP or epinephrine, or totally dependent on synergistic action of both, DPDPE will be infused in the presence of CGRP8-37, ICI-118,551. or the combination of CGRP8-37 plus ICI-118,551. […] Arterial blood pressure and heart rate will be monitored continuously throughout the experiments.

CGRP: calcitonin gene-related peptide, 37 amino acid neuropeptide, vasodilator, infused exogenously (ACDTATCVTHRLAGLLSRSGGVVKNNFVPTNVGSKAF; Calcitonin gene-related peptide 1; UniProt P06881 83-119, looked up)
effect on infarct size, drug delivered before LAD ligation / acute MI: no significant infarct-size-reduction
